From article PMC5814206 (2017)
Several values for one entry are separate records, joined by “and”; a condition that tells them apart may be missing. Equal values may be shown once.

Target: EGFR (Homo sapiens, UniProt P00533)
Experiment: flow

Kd: 9.7 nM and 4.5 nM and 10.4 nM and 9.8 nM
B1: nimotuzumab (antibody, V domains shown)
VH: QVQLQQSGAEVKKPGSSVKVSCKASGYTFTNYYIYWVRQAPGQGLEWIGGINPTSGGSNFNEKFKTRVTITADESSTTAYMELSSLRSEDTAFYFCTRQGLWFDSDGRGFDFWGQGTTVTVSS
VL: DIQMTQSPSSLSASVGDRVTITCRSSQNIVHSNGNTYLDWYQQTPGKAPKLLIYKVSNRFSGVPSRFSGSGSGTDFTFTISSLQPEDIATYYCFQYSHVPWTFGQGTKLQIT
